{"sequences": {"note": "Chains of the proteins cited; added tags and fusions are not shown. Lines headed by an entry give the natural chain unless they say otherwise; changes in a name come on top.", "UniProt Q16539, whole entry": "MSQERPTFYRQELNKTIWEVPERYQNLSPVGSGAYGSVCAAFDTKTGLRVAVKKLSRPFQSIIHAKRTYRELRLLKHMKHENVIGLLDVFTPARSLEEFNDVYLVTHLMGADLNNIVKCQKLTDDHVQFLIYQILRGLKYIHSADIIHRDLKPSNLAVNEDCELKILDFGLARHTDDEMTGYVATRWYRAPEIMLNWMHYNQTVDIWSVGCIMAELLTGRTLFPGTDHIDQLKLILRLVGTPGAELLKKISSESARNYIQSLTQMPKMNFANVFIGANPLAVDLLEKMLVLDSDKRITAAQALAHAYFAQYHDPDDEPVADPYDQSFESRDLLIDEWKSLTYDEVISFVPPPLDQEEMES", "UniProt P41595, whole entry": "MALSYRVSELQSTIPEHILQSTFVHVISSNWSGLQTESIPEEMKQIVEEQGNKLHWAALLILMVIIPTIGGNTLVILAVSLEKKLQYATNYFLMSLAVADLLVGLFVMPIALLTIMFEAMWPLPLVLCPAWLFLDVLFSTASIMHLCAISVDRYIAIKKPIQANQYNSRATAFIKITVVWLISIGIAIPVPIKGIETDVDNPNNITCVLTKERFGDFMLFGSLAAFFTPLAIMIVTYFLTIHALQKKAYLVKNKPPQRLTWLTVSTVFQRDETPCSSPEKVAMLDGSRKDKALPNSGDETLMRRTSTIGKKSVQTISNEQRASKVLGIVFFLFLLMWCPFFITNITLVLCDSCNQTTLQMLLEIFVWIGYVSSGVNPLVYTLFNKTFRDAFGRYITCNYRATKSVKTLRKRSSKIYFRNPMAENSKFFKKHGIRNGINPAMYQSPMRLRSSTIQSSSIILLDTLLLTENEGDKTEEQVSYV", "UniProt Q99720, whole entry": "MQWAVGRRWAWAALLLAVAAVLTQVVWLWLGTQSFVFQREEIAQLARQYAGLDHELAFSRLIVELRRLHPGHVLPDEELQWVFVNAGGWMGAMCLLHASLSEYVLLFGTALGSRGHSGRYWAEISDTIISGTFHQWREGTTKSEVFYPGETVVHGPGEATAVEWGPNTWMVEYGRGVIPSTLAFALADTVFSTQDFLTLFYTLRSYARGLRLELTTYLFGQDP", "UniProt P15823, whole entry": "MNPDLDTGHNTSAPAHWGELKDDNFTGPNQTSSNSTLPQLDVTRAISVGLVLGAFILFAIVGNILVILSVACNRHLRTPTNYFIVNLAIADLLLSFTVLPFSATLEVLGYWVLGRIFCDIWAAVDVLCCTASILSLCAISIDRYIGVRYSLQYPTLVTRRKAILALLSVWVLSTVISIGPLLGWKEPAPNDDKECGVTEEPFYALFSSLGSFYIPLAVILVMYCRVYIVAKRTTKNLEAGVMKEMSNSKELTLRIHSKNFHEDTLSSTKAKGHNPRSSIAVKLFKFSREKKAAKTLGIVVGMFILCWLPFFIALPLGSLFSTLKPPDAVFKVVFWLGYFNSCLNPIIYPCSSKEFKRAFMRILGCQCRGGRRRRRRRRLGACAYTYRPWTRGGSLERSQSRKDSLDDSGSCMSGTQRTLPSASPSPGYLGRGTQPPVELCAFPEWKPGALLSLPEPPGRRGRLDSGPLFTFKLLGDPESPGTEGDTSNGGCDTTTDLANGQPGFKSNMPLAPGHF", "UniProt P23219, whole entry": "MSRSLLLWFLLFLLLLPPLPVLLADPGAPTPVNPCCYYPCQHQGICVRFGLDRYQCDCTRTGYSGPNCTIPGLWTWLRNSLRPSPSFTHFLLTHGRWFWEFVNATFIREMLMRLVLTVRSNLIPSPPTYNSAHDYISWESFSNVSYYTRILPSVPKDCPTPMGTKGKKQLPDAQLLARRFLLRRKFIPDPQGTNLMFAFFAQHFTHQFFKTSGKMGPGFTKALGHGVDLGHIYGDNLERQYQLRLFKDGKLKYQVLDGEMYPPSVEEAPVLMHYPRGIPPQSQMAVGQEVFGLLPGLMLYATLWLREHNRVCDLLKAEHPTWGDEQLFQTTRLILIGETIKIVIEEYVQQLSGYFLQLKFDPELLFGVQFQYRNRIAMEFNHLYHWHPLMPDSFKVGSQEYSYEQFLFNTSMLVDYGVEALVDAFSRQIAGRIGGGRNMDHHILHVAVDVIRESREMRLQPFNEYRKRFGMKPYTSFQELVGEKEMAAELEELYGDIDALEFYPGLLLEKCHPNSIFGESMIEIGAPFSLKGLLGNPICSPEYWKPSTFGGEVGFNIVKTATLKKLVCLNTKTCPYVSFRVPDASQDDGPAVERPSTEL", "UniProt P22303": "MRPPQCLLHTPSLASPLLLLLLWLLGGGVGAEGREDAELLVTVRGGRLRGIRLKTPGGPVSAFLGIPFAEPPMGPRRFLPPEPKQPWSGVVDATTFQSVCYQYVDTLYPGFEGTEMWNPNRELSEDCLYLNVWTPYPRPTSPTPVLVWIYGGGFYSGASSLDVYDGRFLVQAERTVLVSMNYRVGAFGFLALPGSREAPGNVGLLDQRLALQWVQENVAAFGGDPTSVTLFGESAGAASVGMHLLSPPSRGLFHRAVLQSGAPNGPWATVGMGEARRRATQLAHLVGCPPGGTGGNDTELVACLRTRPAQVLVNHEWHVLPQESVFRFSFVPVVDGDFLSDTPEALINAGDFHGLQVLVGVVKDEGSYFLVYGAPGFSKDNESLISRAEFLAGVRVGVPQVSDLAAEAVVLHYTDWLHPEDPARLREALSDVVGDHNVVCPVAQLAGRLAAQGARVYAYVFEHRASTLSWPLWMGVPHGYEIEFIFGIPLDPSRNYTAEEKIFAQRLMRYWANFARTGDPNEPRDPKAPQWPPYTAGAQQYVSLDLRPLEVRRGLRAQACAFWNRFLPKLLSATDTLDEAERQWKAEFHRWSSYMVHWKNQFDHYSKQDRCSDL", "UniProt P08172, whole entry": "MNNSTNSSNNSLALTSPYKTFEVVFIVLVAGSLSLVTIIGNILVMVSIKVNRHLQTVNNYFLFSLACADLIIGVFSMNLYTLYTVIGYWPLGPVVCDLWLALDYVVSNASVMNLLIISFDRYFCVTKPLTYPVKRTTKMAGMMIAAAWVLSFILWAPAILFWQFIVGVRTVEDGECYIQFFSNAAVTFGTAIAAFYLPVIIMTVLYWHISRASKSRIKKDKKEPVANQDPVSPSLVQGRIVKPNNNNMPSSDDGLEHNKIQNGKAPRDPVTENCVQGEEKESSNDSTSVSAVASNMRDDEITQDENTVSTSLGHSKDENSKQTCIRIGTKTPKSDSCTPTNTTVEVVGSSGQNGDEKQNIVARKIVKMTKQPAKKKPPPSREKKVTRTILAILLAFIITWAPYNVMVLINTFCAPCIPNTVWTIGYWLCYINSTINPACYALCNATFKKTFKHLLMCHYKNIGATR"}, "source": "ChEMBL document CHEMBL1909046", "about": "“DrugMatrix in vitro pharmacology data”", "key": {"[1]": {"molecular_target": "Mitogen-activated protein kinase 14 (Homo sapiens, UniProt Q16539)", "design": "species or system Escherichia coli"}, "[2]": {"molecular_target": "5-hydroxytryptamine receptor 2B (Homo sapiens, UniProt P41595)", "format": "cell membranes, CHO-K1, Membrane"}, "[3]": {"molecular_target": "Sigma non-opioid intracellular receptor 1 (Homo sapiens, UniProt Q99720)", "assay": "DRUGMATRIX: Sigma1 radioligand binding (ligand: [3H] Haloperidol)", "format": "cell membranes, Jurkat, Membrane", "conditions": "Not Active = under 50% inhibition at 10 µM"}, "[4]": {"molecular_target": "T1, Alpha-1A adrenergic receptor (Rattus norvegicus, UniProt P43140)", "T1 sequence (P43140 whole entry)": "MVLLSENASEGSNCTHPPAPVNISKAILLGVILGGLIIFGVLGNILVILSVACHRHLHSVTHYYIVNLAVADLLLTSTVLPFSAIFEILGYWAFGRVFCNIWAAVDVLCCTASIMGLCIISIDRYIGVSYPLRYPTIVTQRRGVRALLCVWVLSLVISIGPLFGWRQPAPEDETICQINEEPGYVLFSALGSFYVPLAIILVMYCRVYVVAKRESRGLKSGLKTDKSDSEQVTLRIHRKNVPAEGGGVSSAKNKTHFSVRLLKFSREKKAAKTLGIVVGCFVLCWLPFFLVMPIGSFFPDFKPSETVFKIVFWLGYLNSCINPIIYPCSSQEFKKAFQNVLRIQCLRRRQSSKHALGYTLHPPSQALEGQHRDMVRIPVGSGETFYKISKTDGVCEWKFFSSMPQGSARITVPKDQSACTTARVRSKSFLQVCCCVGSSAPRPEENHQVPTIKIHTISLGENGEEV", "assay": "DRUGMATRIX: Alpha-1A adrenergic receptor radioligand binding (ligand: prazosin)", "format": "cell membranes, Wistar, Submaxillary gland, Membrane", "conditions": "Not Active = under 50% inhibition at 10 µM"}, "[5]": {"molecular_target": "Alpha-1B adrenergic receptor (Rattus norvegicus, UniProt P15823)", "assay": "DRUGMATRIX: Alpha-1B adrenergic receptor radioligand binding (ligand: prazosin)", "format": "cell membranes, Wistar, Liver, Membrane", "conditions": "Not Active = under 50% inhibition at 10 µM"}, "[6]": {"molecular_target": "Prostaglandin G/H synthase 1 (Homo sapiens, UniProt P23219)", "assay": "biochemical", "format": "tissue-based, Platelet"}, "Acetylcholinesterase": {"molecular_target": "Acetylcholinesterase (Homo sapiens, UniProt P22303)", "assay": "DRUGMATRIX: Acetylcholinesterase enzyme inhibition (substrate: acetylthiocholine)", "format": "cell-based, HEK293", "conditions": "Not Active = under 50% inhibition at 10 µM"}, "[7]": {"molecular_target": "Muscarinic acetylcholine receptor M2 (Homo sapiens, UniProt P08172)", "format": "cell membranes, CHO-K1, Membrane"}}, "data": [{"smiles": "COc1ccccc1C(=O)N1CCC(Cc2ccccc2)CC1", "values": [{"measurement": "IC50", "setting": "[1]", "result": 746, "unit": "nM"}]}, {"smiles": "CC(N)Cc1c[nH]c2ccc(OCc3cccs3)cc12", "note": "(configuration not stated) [BW-723C86]", "values": [{"measurement": "IC50", "setting": "[2]", "result": 81.1, "unit": "nM"}, {"measurement": "Ki", "setting": "[2]", "result": 51.6, "unit": "nM"}]}, {"smiles": "CN(C)CCCN1c2ccccc2Sc2ccc(Cl)cc21", "note": "[CHLORPROMAZINE]", "values": [{"measurement": "IC50", "setting": "[3]", "result": 451, "unit": "nM"}]}, {"smiles": "Clc1cccc(Cl)c1N=C1NCCN1", "note": "[CLONIDINE]", "values": [{"measurement": "IC50", "setting": "[4]", "result": 372, "unit": "nM"}, {"measurement": "Ki", "setting": "[4]", "result": 151, "unit": "nM"}, {"measurement": "IC50", "setting": "[5]", "result": 1850, "unit": "nM"}, {"measurement": "Ki", "setting": "[5]", "result": 1020, "unit": "nM"}]}, {"smiles": "CC(C(=O)O)c1ccc(-c2ccccc2)c(F)c1", "note": "(configuration not stated) [FLURBIPROFEN]", "values": [{"measurement": "IC50", "setting": "[6]", "result": 21, "unit": "nM"}]}, {"smiles": "Oc1c(Cl)cc(Cl)c(Cl)c1Cc1c(O)c(Cl)cc(Cl)c1Cl", "note": "[HEXACHLOROPHENE]", "values": [{"measurement": "IC50", "setting": "Acetylcholinesterase", "result": 3010, "unit": "nM"}]}, {"smiles": "CC(=O)N1CCN(c2ccc(OCC3COC(Cn4ccnc4)(c4ccc(Cl)cc4Cl)O3)cc2)CC1", "note": "(configuration not stated) [KETOCONAZOLE]", "values": [{"measurement": "IC50", "setting": "[7]", "result": 26300, "unit": "nM"}, {"measurement": "Ki", "setting": "[7]", "result": 9370, "unit": "nM"}]}, {"smiles": "Oc1ccc(/C=C/c2cc(O)cc(O)c2)cc1", "note": "[RESVERATROL]", "values": [{"measurement": "IC50", "setting": "[6]", "result": 625, "unit": "nM"}]}, {"smiles": "COc1cc2nc(N3CCN(C(=O)C4CCCO4)CC3)nc(N)c2cc1OC", "note": "(configuration not stated) [TERAZOSIN]", "values": [{"measurement": "IC50", "setting": "[4]", "result": 24, "unit": "nM"}, {"measurement": "Ki", "setting": "[4]", "result": 9.59, "unit": "nM"}]}, {"smiles": "COC(=O)[C@@H]1[C@H]2C[C@H]3c4[nH]c5ccccc5c4CCN3C[C@@H]2CC[C@@H]1O", "note": "[YOHIMBINE]", "values": [{"measurement": "IC50", "setting": "[4]", "result": 1240, "unit": "nM"}, {"measurement": "Ki", "setting": "[4]", "result": 500, "unit": "nM"}]}]}
